Test results taken from paper PMC10295947 (Biomolecules, 2023).
Counter-ions that a name gives are not always drawn.

System: C57BL/6J mice
Experiment: Locomotor sensitization after repeated daily dosing (day 1 vs day 7)
Details: fentanyl 0.5, morphine 24, oliceridine 3 (first 30 min), SR-15099 12, SR-17018 12 mg/kg i.p.

Row | SMILES | Locomotor sensitization after chronic daily dosing (day 7 vs day 1)
1 | CN1CC[C@]23c4c5ccc(O)c4O[C@H]2[C@@H](O)C=C[C@H]3[C@H]1C5 [morphine, Morphine sulfate pentahydrate] | produced enhanced responses after chronic dosing
2 | COc1ccsc1CNCC[C@@]1(c2ccccn2)CCOC2(CCCC2)C1 [oliceridine, Oliceridine hydrochloride] | sensitization was also observed following chronic daily dosing
